The target of this assay is ALK4 (Homo sapiens, UniProt P36896). Put plainly: biochemical.

By UniProt entry, the sequences of proteins in these tests, tags left out. Residues count along the entry.
UniProt P36896, 24-505, species assumed: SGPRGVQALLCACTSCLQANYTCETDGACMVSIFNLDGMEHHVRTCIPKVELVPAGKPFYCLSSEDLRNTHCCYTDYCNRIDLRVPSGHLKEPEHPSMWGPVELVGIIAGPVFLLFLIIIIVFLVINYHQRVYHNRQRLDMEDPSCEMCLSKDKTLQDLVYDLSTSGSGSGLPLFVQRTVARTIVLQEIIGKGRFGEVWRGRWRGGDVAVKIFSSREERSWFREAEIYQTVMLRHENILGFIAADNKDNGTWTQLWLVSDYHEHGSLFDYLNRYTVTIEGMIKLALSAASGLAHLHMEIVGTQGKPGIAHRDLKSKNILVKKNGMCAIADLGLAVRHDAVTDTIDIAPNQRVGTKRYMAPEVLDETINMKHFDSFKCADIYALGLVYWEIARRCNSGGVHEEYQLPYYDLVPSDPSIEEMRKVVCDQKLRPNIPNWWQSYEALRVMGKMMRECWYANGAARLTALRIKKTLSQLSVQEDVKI

Usually IC50 stands for the concentration that inhibits the measured activity by half.

As to `Cc1cccc(-c2n[nH]cc2-c2ccc3ncccc3n2)n1` [ALK5iII, 2-(3-(6-methylpyridin-2-yl)-1H-pyrazol-4-yl)-1,5-naphthyridine], the IC50 was < 10 nM.

Source of the values: US20250188420A1, “MATURING AGENT HAVING BOTH OF ALK5 INHIBITORY ACTIVITY AND CDK8/19 INHIBITORY ACTIVITY” (ORIZURU THERAPEUTICS, INC., priority 2022, published 2025).
